Data reported in publication PMC12337661, “PIEZO1 mechanical insensitivity in generalized lymphatic dysplasia with the potential for pharmacological rescue” (iScience, 2025).

Protein sequences, listed by entry. Tags and fused reporters are not part of them.
UniProt E2JF22, whole entry I2286T: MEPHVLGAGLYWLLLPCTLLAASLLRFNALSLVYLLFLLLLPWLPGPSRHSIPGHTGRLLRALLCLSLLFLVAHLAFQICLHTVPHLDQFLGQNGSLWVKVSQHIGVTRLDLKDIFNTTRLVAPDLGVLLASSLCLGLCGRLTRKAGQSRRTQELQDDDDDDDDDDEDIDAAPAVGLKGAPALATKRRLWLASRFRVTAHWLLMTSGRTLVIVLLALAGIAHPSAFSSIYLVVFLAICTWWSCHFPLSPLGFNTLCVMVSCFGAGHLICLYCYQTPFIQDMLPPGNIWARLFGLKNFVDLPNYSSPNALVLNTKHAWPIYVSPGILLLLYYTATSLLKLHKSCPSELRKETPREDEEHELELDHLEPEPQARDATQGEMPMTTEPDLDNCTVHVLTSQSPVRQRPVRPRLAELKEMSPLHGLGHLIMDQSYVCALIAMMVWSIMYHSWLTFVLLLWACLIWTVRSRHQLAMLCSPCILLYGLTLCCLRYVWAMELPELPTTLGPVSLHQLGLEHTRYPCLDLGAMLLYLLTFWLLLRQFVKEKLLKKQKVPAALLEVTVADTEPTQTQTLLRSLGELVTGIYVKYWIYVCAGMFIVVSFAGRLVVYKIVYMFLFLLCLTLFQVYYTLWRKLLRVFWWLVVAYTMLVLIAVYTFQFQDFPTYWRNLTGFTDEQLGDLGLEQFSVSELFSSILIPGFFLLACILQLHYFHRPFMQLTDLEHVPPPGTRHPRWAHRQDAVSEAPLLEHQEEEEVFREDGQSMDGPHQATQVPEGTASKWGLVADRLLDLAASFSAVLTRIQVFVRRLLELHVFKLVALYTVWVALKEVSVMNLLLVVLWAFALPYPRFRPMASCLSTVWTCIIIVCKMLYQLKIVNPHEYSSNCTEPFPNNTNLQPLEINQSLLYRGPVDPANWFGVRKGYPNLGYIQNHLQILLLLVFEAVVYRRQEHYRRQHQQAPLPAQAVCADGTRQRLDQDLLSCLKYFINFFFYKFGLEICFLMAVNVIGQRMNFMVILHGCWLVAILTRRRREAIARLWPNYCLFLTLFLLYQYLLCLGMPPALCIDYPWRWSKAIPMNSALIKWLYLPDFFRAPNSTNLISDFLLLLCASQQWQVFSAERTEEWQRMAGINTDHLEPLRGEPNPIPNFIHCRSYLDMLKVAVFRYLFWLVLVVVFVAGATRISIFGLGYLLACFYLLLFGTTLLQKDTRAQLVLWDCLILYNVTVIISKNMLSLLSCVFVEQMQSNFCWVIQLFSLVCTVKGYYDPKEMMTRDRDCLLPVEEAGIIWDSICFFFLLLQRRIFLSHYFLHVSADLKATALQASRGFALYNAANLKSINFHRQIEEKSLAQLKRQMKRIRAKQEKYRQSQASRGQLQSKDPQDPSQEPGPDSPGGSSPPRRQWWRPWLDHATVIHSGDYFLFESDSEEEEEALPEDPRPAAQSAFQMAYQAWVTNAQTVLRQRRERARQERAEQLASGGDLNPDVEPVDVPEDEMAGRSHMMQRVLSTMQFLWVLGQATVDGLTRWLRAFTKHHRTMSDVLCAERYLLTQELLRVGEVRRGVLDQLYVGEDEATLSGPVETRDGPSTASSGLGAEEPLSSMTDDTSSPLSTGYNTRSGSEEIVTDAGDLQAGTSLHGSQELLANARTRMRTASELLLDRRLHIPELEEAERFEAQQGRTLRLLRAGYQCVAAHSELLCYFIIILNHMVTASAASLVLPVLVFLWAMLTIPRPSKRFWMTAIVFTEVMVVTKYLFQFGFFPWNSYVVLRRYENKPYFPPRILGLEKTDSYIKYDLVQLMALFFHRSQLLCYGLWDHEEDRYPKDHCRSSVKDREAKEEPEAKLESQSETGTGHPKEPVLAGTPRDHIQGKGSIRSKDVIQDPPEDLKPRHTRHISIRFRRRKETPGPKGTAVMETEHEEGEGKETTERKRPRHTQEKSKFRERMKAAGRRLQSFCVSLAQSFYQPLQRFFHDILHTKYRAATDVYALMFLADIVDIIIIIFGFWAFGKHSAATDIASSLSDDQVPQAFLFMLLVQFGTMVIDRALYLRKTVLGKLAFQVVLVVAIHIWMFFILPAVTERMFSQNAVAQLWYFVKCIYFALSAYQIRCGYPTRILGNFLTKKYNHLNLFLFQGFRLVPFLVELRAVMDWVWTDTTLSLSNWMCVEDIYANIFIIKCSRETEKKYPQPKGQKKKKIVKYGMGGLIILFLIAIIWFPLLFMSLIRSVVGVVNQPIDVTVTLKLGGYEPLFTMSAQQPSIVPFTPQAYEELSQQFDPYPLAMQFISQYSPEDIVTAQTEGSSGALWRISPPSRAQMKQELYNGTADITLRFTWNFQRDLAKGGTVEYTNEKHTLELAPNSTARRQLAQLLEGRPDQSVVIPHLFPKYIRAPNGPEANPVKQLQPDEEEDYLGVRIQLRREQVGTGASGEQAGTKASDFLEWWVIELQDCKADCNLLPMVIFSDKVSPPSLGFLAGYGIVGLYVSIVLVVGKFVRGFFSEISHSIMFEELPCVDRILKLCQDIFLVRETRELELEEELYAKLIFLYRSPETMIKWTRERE

Biological target: I2286T mPIEZO1 (Mus musculus, UniProt E2JF22, I2286T)
Test: Intracellular Ca2+ measurement (fura-2), T-REx-293 cells stably transfected
Conditions: time course 0-120 s, time (s) in the cell to the left, Figure 3f
Method: T-REx-293 cell line was transfected with pcDNA4/TO-mPIEZO1 constructs using Lipofectamine 2000 (Invitrogen) as above and treated with 200 μg.mL^−1 zeocin (InvivoGen) to select for stably transfected cells. At least two strongly expressing clonal cell lines were established and tested for each variant. All cell lines were maintained in Dulbecco’s Modified Eagle’s medium (Invitrogen) supplemented with 10% heat-inactivated fetal calf serum (Sigma-Aldrich), penicillin (50 units.mL^−1) and streptomycin (0.5 mg.mL^−1) (Sigma-Aldrich) and grown at 37°C in a humidified 5% CO2 incubator.
For intracellular Ca^2+ assays, cells were plated at 80–90% confluence in 96-well plates 24 h prior to recordings (6–8 × 10^4 cells per well). To measure intracellular Ca^2+, cells were incubated for 1 h at 37°C in standard bath solution (SBS) of composition 135 mM NaCl, 5 mM KCl, 1.2 mM MgCl2, 1.5 mM CaCl2, 8 mM glucose and 10 mM HEPES (pH titrated to 7.4 using NaOH) containing 2 μM fura-2-acetoxymethyl ester (fura-2-AM, Molecular Probes) with 0.01% weight/volume pluronic acid. Cells were washed with SBS and incubated at room temperature for 20 min prior to recordings. Equal volumes of 2x concentrated compounds were injected to test for acute channel activation. Pre-incubation with compounds occurred during the 20 min prior to recordings. To expose cell membranes to hypo-osmolality, an equal volume of hypotonic SBS (containing only 35 mM NaCl) was injected onto the cells. Measurements were made on a fluorescence plate reader (Flexstation III, Molecular Devices) at room temperature (21 ± 2°C). Fura-2 was excited at 340 nm and 380 nm and emitted light collected at 510 nm, with measurements shown as the change in fluorescence (F) ratio (ΔF340/380).
KC41 (Dooku1) was prepared as described.[28] All purchased chemicals and solvents were used without further purification unless otherwise stated. All compounds were at least 95% pure by 1H NMR. 1H Nuclear Magnetic Resonance spectra were recorded at 500 MHz using a Bruker DRX 500 instrument or at 400 MHz using a Bruker DPX 400. 1H spectra are referenced based on the residual proton in the solvent (e.g., the CHCl3, 0.01% in 99.99% CDCl3). Coupling constants (J) are reported to the nearest 0.1 Hz. 13C NMR spectra were recorded at 125 MHz on 500 MHz spectrometers or at 100 MHz on 400 MHz spectrometers. LC-MS was performed on a Bruker Daltronics running a gradient of increasing acetonitrile (5–95%) in H2O both containing 0.1% formic acid at 1 mL.min^−1, on a short path C18 reverse phase column, detecting compounds with both a diode array detector and a Bruker mass spectrum analyser. HRMS was performed on a Bruker Daltonics micrOTOF using positive electrospray ionisation (ES+). Automated column chromatograph was carried out using a Biotage Isolera Four, using either Sfär Silica D or KP-Silica cartridges. HPLC was performed on an Agilent 1290 Infinity Series equipped with a UV detector and Hyperprep C18 reverse phase column. Key to NMR abbreviations: s (singlet), br s (broad singlet) d (doublet), dd (doublet of doublets), ddd (doublet of doublets of doublets), t (triplet), dt (doublet of triples), q (quartet), m (multiplet), ap. t (apparent triplet). For experiments, Yoda1 and its analogues were prepared as 10 mM stock solutions in 100% dimethyl sulfoxide (DMSO) before serial dilution in DMSO and final dilution in aqueous solution. Cells were exposed to 0.1% DMSO for all concentrations of the compounds from 0 to 10 μM.

`Clc1cccc(Cl)c1CSc1nnc(-c2cnccn2)s1` [Yoda1] gave a fluorescence (Yoda1 0.03 µM, time 0 s) of 0.00215, a fluorescence (Yoda1 0.03 µM, time 55 s) of 0.02362 and a fluorescence (Yoda1 0.1 µM, time 0 s) of -0.00356. It also gave a fluorescence (Yoda1 0.1 µM, time 60 s) of 0.01948, a fluorescence (Yoda1 0.1 µM, time 115 s) of 0.02288 and a fluorescence (Yoda1 0.3 µM, time 0 s) of -0.01005. It also gave a fluorescence (Yoda1 0.3 µM, time 5 s) of 0.00236, a fluorescence (Yoda1 0.3 µM, time 10 s) of 0.01222 and a fluorescence (Yoda1 0.3 µM, time 15 s) of 0.01013. For the same compound, the fluorescence (Yoda1 0.3 µM, time 20 s) was -0.01479, the fluorescence (Yoda1 0.3 µM, time 30 s) was -0.215 and the fluorescence (Yoda1 0.3 µM, time 35 s) was -0.1069. For the same compound, the fluorescence (Yoda1 0.3 µM, time 40 s) was 0.08375, the fluorescence (Yoda1 0.3 µM, time 45 s) was 0.121 and the fluorescence (Yoda1 0.3 µM, time 50 s) was 0.1451. It also gave a fluorescence (Yoda1 0.3 µM, time 55 s) of 0.1282, a fluorescence (Yoda1 0.3 µM, time 105 s) of 0.07106 and a fluorescence (Yoda1 1 µM, time 0 s) of 0.00208. For the same compound, the fluorescence (Yoda1 1 µM, time 5 s) was -0.00755, the fluorescence (Yoda1 1 µM, time 10 s) was -0.00797 and the fluorescence (Yoda1 1 µM, time 15 s) was 0.0039. It also gave a fluorescence (Yoda1 1 µM, time 20 s) of -0.00108, a fluorescence (Yoda1 1 µM, time 25 s) of 0.01062 and a fluorescence (Yoda1 1 µM, time 30 s) of -0.3122. For the same compound, the fluorescence (Yoda1 1 µM, time 35 s) was -0.1435, the fluorescence (Yoda1 1 µM, time 40 s) was 0.1875 and the fluorescence (Yoda1 1 µM, time 45 s) was 0.321. It also gave a fluorescence (Yoda1 1 µM, time 50 s) of 0.3615, a fluorescence (Yoda1 1 µM, time 100 s) of 0.2708 and a fluorescence (Yoda1 3 µM, time 5 s) of 0.00612. The fluorescence (Yoda1 3 µM, time 55 s) was 0.782, the fluorescence (Yoda1 3 µM, time 60 s) was 0.7956 and the fluorescence (Yoda1 3 µM, time 65 s) was 0.8166. For the same compound, the fluorescence (Yoda1 3 µM, time 70 s) was 0.8058, the fluorescence (Yoda1 3 µM, time 75 s) was 0.7837 and the fluorescence (Yoda1 3 µM, time 80 s) was 0.754. It also gave a fluorescence (Yoda1 3 µM, time 85 s) of 0.6951, a fluorescence (Yoda1 3 µM, time 90 s) of 0.6727 and a fluorescence (Yoda1 3 µM, time 95 s) of 0.6738. The fluorescence (Yoda1 3 µM, time 100 s) was 0.6585, the fluorescence (Yoda1 3 µM, time 105 s) was 0.6319 and the fluorescence (Yoda1 5 µM, time 0 s) was 0.0063. The fluorescence (Yoda1 5 µM, time 55 s) was 1.264, the fluorescence (Yoda1 5 µM, time 60 s) was 1.335 and the fluorescence (Yoda1 5 µM, time 65 s) was 1.347. For the same compound, the fluorescence (Yoda1 5 µM, time 70 s) was 1.32, the fluorescence (Yoda1 5 µM, time 75 s) was 1.293 and the fluorescence (Yoda1 5 µM, time 80 s) was 1.215. The fluorescence (Yoda1 5 µM, time 85 s) was 1.202, the fluorescence (Yoda1 5 µM, time 90 s) was 1.154 and the fluorescence (Yoda1 5 µM, time 95 s) was 1.1194. The fluorescence (Yoda1 5 µM, time 100 s) was 1.065, the fluorescence (Yoda1 5 µM, time 105 s) was 1.057 and the fluorescence (Yoda1 5 µM, time 110 s) was 1.042. It also gave a fluorescence (Yoda1 5 µM, time 115 s) of 0.9808, a fluorescence (Yoda1 5 µM, time 120 s) of 0.94 and a fluorescence (Yoda1 10 µM, time 0 s) of 0.00662. For the same compound, the fluorescence (Yoda1 10 µM, time 50 s) was 1.54 and the fluorescence (Yoda1 10 µM, time 100 s) was 1.671.
